This assay concerns the target T1, Calpain-1 catalytic subunit (Homo sapiens) (UniProt P07384).
T1 sequence (whole entry): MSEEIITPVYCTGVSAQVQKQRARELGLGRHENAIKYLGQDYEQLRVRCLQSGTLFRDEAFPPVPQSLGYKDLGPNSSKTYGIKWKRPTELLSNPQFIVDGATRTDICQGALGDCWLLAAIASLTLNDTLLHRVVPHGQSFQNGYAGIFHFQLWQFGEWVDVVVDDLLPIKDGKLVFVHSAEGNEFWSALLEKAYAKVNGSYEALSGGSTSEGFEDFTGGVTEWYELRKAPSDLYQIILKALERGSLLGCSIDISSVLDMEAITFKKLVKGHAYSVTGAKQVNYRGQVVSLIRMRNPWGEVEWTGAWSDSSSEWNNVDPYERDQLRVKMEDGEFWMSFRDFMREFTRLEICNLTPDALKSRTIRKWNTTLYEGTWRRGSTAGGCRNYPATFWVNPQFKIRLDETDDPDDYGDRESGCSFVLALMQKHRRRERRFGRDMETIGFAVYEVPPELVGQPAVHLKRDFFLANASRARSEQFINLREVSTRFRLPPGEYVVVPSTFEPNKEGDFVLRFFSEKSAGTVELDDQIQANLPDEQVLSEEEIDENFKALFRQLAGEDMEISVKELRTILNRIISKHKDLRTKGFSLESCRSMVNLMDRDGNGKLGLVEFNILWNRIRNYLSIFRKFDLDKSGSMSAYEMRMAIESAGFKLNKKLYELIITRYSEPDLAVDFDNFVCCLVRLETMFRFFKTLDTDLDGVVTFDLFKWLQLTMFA
In words: Inhibition of Calpain-I receptor.

Molecules are shown by their SMILES.

As for `CC(C)C[C@H](NC(=O)N1CCc2ccccc2C1)C(=O)NC(Cc1ccccc1)C(=O)CF` (stereo partly specified), the K was 276000 M⁻¹ s⁻¹.

Source of the values: ChEMBL document CHEMBL1130238, “Synthesis and biological activity of a series of potent fluoromethyl ketone inhibitors of recombinant human calpain I” (J Med Chem, 1997).
